{
  "source": "patent US12319954B2",
  "about": "“Morphinan compounds” (Concert Pharmaceuticals, Inc., priority 2007, dated 2025)",
  "key": {"[1]": {"assay": "Metabolic stability in human liver microsomes", "settings": "low (0.1 μM) concentration of compound; data not shown", "procedure": "The objectives of this study were to determine the metabolic stability of the test compounds in pooled human and […] liver microsomal incubations. Samples of the test compounds, exposed to pooled human or […] liver microsomes, were analyzed using HPLC-MS (or MS/MS) detection. For determining metabolic stability, multiple reaction monitoring (MRM) was used to measure the disappearance of the test compounds.\nExperimental Procedures: Human liver and Cynomolgus monkey liver microsomes were obtained from XenoTech, LLC (Lenexa, KS). The incubation mixtures were prepared as follows:\nIncubation of Test Compounds with Liver Microsomes: The reaction mixture, minus cofactors, was prepared. An aliquot of the reaction mixture (without cofactors) was incubated in a shaking water bath at 37° C. for 3 minutes. Another aliquot of the reaction mixture was prepared as the negative control. The test compound was added into both the reaction mixture and the negative control at a final concentration of 0.10, 0.25, or 1 μM. An aliquot of the reaction mixture was prepared as a blank control, by the addition of plain organic solvent (no test compound is added). The reaction was initiated by the addition of cofactors (not added to the negative controls), and then incubated in a shaking water bath at 37° C. […]\nAll samples were analyzed using LC-MS (or MS/MS). […]"}, "[2]": {"biological_target": "T1, Human CYP2D6+P450 Reductase SUPERSOMES (Homo sapiens, UniProt P10635)", "T1 construct": "purchased GenTest (Woburn, MA, USA); host or cells: insect cells (inferred from the negative control, insect cell microsomes)", "assay": "Metabolic stability in CYP2D6 SUPERSOMES", "assay_type": "in vitro ADME", "settings": "0.1 μM compound", "procedure": "Human CYP2D6+P450 Reductase SUPERSOMES™ were purchased from GenTest (Woburn, MA, USA). A 1.0 mL reaction mixture containing 25 pmole of SUPERSOMES™, 2.0 mM NADPH, 3.0 mM MgCl, and 0.1 μM of various compounds of Formula I (Compounds 100, 101, and 108) in 100 mM potassium phosphate buffer (pH 7.4) was incubated at 37° C. in triplicate. […] Aliquots (50 μL) were removed from each sample and placed in wells of a multi-well plate at 0, 2, 5, 7, 12, 20, and 30 minutes and to each was added 50 μL of ice cold acetonitrile with 3 μM haloperidol as an internal standard to stop the reaction.\nPlates containing the removed aliquots were then placed in −20° C. freezer for 15 minutes to cool. After cooling, 100 μL of deionized water was added to all wells in the plate. Plates were then spun in the centrifuge for 10 minutes at 3000 rpm. A portion of the supernatant (100 μL) was then removed, placed in a new plate and analyzed using Mass Spectrometry."}},
  "data": [
    {"substance": "(+)-3-d3-methoxy-17-methyl-(9α, 13α, 14α)-morphinan [Compound 100]", "values": [
      {"measurement": "relative stability as compared to dextromethorphan in human liver microsomes", "setting": "[1]", "result": "remained the same"},
      {"measurement": "remained intact after a 30 minute incubation with 2D6 Supersomes", "setting": "[2]; 30 minutes", "result": "~40", "unit": "%"},
      {"measurement": "stability to metabolism in 2D6 Supersomes, comparative", "setting": "[2]; FIG. 3", "result": "much more stable to metabolism than dextromethorphan or Compound 108"}
    ]}
  ]
}
